The target in the assay is hFIXa (Homo sapiens (Human), UniProt P00740). In words: Determination of inhibitory activity against Factor IXa (cleavage of fluorescent peptide CH3SO2-D-CHG-Gly-Arg-AFC). Format: biochemical.

Chains of the proteins cited; added tags and fusions are not shown. Residues count along the entry.
UniProt P00740, 227-461: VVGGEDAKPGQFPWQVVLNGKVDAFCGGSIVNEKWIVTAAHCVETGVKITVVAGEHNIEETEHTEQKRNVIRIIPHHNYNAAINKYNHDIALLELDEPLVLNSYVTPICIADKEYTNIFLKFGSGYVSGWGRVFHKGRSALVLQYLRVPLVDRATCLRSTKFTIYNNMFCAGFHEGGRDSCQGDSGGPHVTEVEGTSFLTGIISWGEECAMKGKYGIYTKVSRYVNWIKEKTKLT
UniProt P00740, 47-191 partner: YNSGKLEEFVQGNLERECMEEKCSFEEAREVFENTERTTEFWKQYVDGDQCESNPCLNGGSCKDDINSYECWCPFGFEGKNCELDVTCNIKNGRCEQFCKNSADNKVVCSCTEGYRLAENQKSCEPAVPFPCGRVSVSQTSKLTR

Where a name gives a salt, the structure may show the parent alone.

The term IC50 denotes the concentration needed to halve the response being measured. Higher therefore signals weaker potency in that assay. `Cc1ccc2c3c(n(CCC(=O)O)c2c1)CC[C@](NC(=O)c1ccc(-n2cnc(C)n2)cc1Cl)(c1cccc(F)c1)C3` [Example 120, (R)-3-(3-(2-chloro-4-(3-methyl-1H-1,2,4-triazol-1-yl)benzamido)-3-(3-fluorophenyl)-7-methyl-3,4-dihydro-1H-carbazol-9(2H)-yl)propanoic acid] registered an IC50 of 6.62 nM.

Take `Cc1ccc2c3c([nH]c2c1)CCC(NC(=O)c1c(Cl)cc(-n2cnnc2)cc1Cl)(c1cc(F)cc(C(F)(F)F)c1)C3` (stereo not drawn) [Example 121]: the IC50 worked out at 19.2 nM.

The compound `Cc1ccc2c3c(n(CCC(=O)O)c2c1)CC[C@](NC(=O)c1c(Cl)cc(-n2cnc(C)n2)cc1Cl)(c1cccc(F)c1)C3` [Example 122] had an IC50 of 11.7 nM. Compared with the last compound, the IC50 is about 1.6-fold lower.

Compound `Cc1ccc2c3c(n(CCC(=O)O)c2c1)CC[C@](NC(=O)c1c(Cl)cc(-n2cnnc2)cc1Cl)(c1cccc(Cl)c1)C3` [Example 123] returned an IC50 of 3.6 nM.

With `Cc1ccc2c(c1)cc1n2C[C@](C)(NC(=O)c2ccc(-n3cnnc3)cc2Cl)CC1` [Example 124], the IC50 was determined as 136 nM.

The compound `Cc1ccc2c(c1)cc1n2C[C@@](NC(=O)c2ccc(-n3cnnc3)cc2Cl)(c2ccccc2)CC1` [Example 125] returned an IC50 of 34.8 nM. Compared with the last compound, the IC50 is about 3.9-fold lower.

Take `Cc1ccc2c(c1)c(C(N)=O)c1n2C[C@](C)(NC(=O)c2ccc(-n3cnnc3)cc2Cl)CC1` [Example 126]: the IC50 turned out to be 17.8 nM.

`Cc1ccc2c(c1)c(C(N)=O)c1n2C[C@@](NC(=O)c2ccc(-n3cnnc3)cc2)(c2ccccc2)CC1` [Example 127] returned an IC50 of 2.64 nM. Against the preceding compound, the IC50 is about 6.7-fold lower.

Regarding `Cc1ccc2c(c1)c(C(=O)O)c1n2C[C@@](NC(=O)c2ccc(-n3cnnc3)cc2)(c2ccccc2)CC1` [Example 128], the IC50 was 0.596 nM. Against the preceding compound, the IC50 is about 4.4-fold lower.

Compound `Cc1ccc2c(c1)c(C(N)=O)c1n2C[C@@](NC(=O)c2ccc(-n3cnnn3)cc2)(c2ccccc2)CC1` [Example 129] returned an IC50 of 10.8 nM.

As for `Cc1ccc2c(c1)c(C(=O)O)c1n2C[C@@](NC(=O)c2ccc(-n3cnnc3)cn2)(c2ccccc2)CC1` [Example 130], the IC50 is 2.53 nM.

The compound `Cc1ccc2c(c1)c(C)c1n2C[C@@](NC(=O)c2ccc(-n3cnnc3)cc2Cl)(c2ccccc2)CC1` [Example 131, (S)-2-chloro-N-(2,10-dimethyl-7-phenyl-6,7,8,9-tetrahydropyrido[1,2-a]indol-7-yl)-4-(4H-1,2,4-triazol-4-yl)benzamide] displayed an IC50 of 6.32 nM.

`Cc1ccc2c(c1)c(C#N)c1n2C[C@@](NC(=O)c2ccc(-n3cnnc3)cc2Cl)(c2ccccc2)CC1` [Example 132] returned a concentration for half-maximal inhibition (IC50) of 5.11 nM. The IC50 values of the last two compounds are within 1.5-fold of each other.

In turn, `Cc1ccc2c(c1)c(CCC(=O)O)c1n2C[C@@](NC(=O)c2ccc(-n3cnnc3)cc2)(c2ccccc2)CC1` [Example 133] showed an IC50 of 3.59 nM.

`Cc1ccc2c(c1)c(C=O)c1n2C[C@@](NC(=O)c2ccc(-n3cnc(C)n3)cc2Cl)(c2ccccc2)CC1` [Example 136] gave an IC50 of 5.89 nM.

Take `Cc1ccc2c(c1)c(/C=N/O)c1n2C[C@@](NC(=O)c2ccc(-n3cnnc3)cc2Cl)(c2ccccc2)CC1` [Example 137]: the concentration for half-maximal inhibition (IC50) was determined as 2.38 nM.

As to `Cc1ccc2c(c1)c(C(N)=O)c1n2C[C@@](NC(=O)c2ccc(-n3cnnn3)cc2Cl)(c2ccccc2)CC1` [Example 140], the IC50 was 8.63 nM.

In the case of `COc1cc(-n2cnc(C)n2)ccc1C(=O)N[C@]1(c2ccccc2)CCc2c(C(=O)O)c3cc(C)ccc3n2C1` [Example 141], the IC50 came out at 4.15 nM.

Compound `COc1cc(-n2cnnc2C)ccc1C(=O)N[C@]1(c2ccccc2)CCc2c(C(=O)O)c3cc(C)ccc3n2C1` [Example 142] displayed an IC50 of 5.05 nM.

Take `Cc1ccc2c(c1)c(C1CC1)c1n2C[C@@](NC(=O)c2ccc(-n3cnnc3C)cc2Cl)(c2ccccc2)CC1` [Example 143]: half-maximal inhibition (IC50) required 9.81 nM.

In turn, `CC(=O)c1c2n(c3ccc(C)cc13)C[C@@](NC(=O)c1ccc(-n3cnc(C)n3)cc1Cl)(c1ccccc1)CC2` [Example 144] displayed an IC50 of 1.85 nM.

With `Cc1ccc2c(c1)c(/C=N/O)c1n2C[C@@](NC(=O)c2ccc(-n3cnc(C)n3)cc2Cl)(c2ccccc2)CC1` [Example 145], the IC50 was 4.29 nM.

`C/C(=N\O)c1c2n(c3ccc(C)cc13)C[C@@](NC(=O)c1ccc(-n3cnnc3)cc1Cl)(c1ccccc1)CC2` [Example 146, (E)-2-chloro-N-(10-(1-(hydroxyimino)ethyl)-2-methyl-7-phenyl-6,7,8,9-tetrahydropyrido[1,2-a]indol-7-yl)-4-(4H-1,2,4-triazol-4-yl)benzamide, TFA] registered an IC50 of 3.33 nM. The IC50 values of the last two compounds are within 1.5-fold of each other.

`Cc1ccc2c(c1)c(C(N)=O)c1n2C[C@@](NC(=O)c2ccc(-n3cnnc3C)cc2Cl)(c2ccccc2)CC1` [Example 147]: half-maximal inhibition (IC50) was put at 2.05 nM.

As to `Cc1ccc2c(c1)c(C(N)=O)c1n2C[C@@](NC(=O)c2ccc(-n3cnc(C)n3)cc2Cl)(c2ccccc2)CC1` [Example 148], half-maximal inhibition (IC50) was put at 2.99 nM.

`Cc1ccc2c(c1)c(C(=O)O)c1n2C[C@@](NC(=O)c2ccc(-n3cnnc3C)cc2Cl)(c2ccccc2)CC1` [Example 150] had an IC50 of 1.6 nM. This IC50 is about 1.9-fold lower than that of the compound before.

Consider `Cc1ccc2c(c1)c(CC(=O)O)c1n2C[C@@](NC(=O)c2ccc(-n3cnnc3)cc2Cl)(c2ccccc2)CC1` [Example 151], for which the IC50 was determined as 2.87 nM.

As to `Cc1ccc2c(c1)c(C=O)c1n2C[C@@](NC(=O)c2c(Cl)cc(-n3cnnc3)cc2Cl)(c2ccccc2)CC1` [Example 153], 1.61 nM corresponded to half-maximal inhibition (IC50).

In turn, `Cc1ccc2c(c1)c(-c1ncn[nH]1)c1n2C[C@@](NC(=O)c2ccc(-n3cnnc3)cc2Cl)(c2ccccc2)CC1` [Example 154] gave an IC50 of 14.7 nM. Against the preceding compound, the IC50 is about 9.1-fold higher.

In the case of `Cc1ccc2c(c1)c(C(F)(F)F)c1n2C[C@@](NC(=O)c2ccc(-n3cnnc3)cc2Cl)(c2ccccc2)CC1` [Example 155, (S)-2-chloro-N-(2-methyl-7-phenyl-10-(trifluoromethyl)-6,7,8,9-tetrahydropyrido[12]indol-7-yl)-4-(4H-1,2,4-triazol-4-yl)benzamide], the IC50 was 8.42 nM.

In turn, `Cc1ccc2c(c1)c(-c1nnn[nH]1)c1n2C[C@@](NC(=O)c2ccc(-n3cnnc3)cc2Cl)(c2ccccc2)CC1` [Example 156, (S)-2-chloro-N-(2-methyl-7-phenyl-10-(1H-tetrazol-5-yl)-6,7,8,9-tetrahydropyrido[1,2-a]indol-7-yl)-4-(4H-1,2,4-triazol-4-yl)benzamide, TFA] displayed an IC50 of 2.38 nM.

Regarding `Cc1ccc2c(c1)c(/C=C/C(N)=O)c1n2C[C@@](NC(=O)c2ccc(-n3cnnc3)cc2Cl)(c2ccccc2)CC1` [Example 157], it took 2.03 nM to reach half-maximal inhibition (IC50).

`COc1ncn(-c2ccc(C(=O)N[C@]3(c4ccccc4)CCc4c(C(=O)O)c5cc(C)ccc5n4C3)c(OC)c2)n1` [Example 158] returned an IC50 of 8.55 nM.

As for `COc1cc(-n2cnn(C)c2=O)ccc1C(=O)N[C@]1(c2ccccc2)CCc2c(C(=O)O)c3cc(C)ccc3n2C1` [Example 159], the IC50 was determined as 5.97 nM. The IC50 values of the last two compounds are within 1.5-fold of each other.

For the compound `Cc1ccc2c(c1)c(/C=C/C(=O)O)c1n2C[C@@](NC(=O)c2ccc(-n3cnnc3)cc2Cl)(c2ccccc2)CC1` [Example 160, (S,E)-3-(7-(2-chloro-4-(4H-1,2,4-triazol-4-yl)benzamido)-2-methyl-7-phenyl-6,7,8,9-tetrahydropyrido[1,2-a]indol-10-yl)acrylic acid], the IC50 stood at 0.82 nM.

`Cc1ccc2c(c1)c(CCC(N)=O)c1n2C[C@@](NC(=O)c2ccc(-n3cnnc3)cc2Cl)(c2ccccc2)CC1` [Example 161, (S)—N-(10-(3-amino-3-oxopropyl)-2-methyl-7-phenyl-6,7,8,9-tetrahydropyrido[1,2-a]indol-7-yl)-2-chloro-4-(4H-1,2,4-triazol-4-yl)benzamide 2,2,2-trifluoroacetate] yielded an IC50 of 19.1 nM.

Turning to `C/C(=N\O)c1c2n(c3ccc(C)cc13)C[C@@](NC(=O)c1ccc(-n3cnc(C)n3)cc1Cl)(c1ccccc1)CC2` [Example 162], the IC50 was determined as 4.12 nM.

`Cc1ccc2c(c1)c(C(N)=O)c1n2C[C@@](NC(=O)c2c(C)cc(-n3cnc(C)n3)cc2Cl)(c2ccccc2)CC1` [Example 163] showed an IC50 of 2.59 nM.

Turning to `COC(=O)c1c2n(c3ccc(C)cc13)C[C@@](NC(=O)c1ccc(-n3cnc(C)n3)cc1Cl)(c1ccccc1)CC2` [Example 165], 6.96 nM corresponded to half-maximal inhibition (IC50).

The compound `Cc1ccc2c(c1)c(CC(=O)O)c1n2C[C@@](NC(=O)c2ccc(-n3cnc(C)n3)cc2Cl)(c2ccccc2)CC1` [Example 166] displayed an IC50 of 4.71 nM. This IC50 and that of the compound before are within 1.5-fold of each other.

Take `Cc1ccc2c(c1)c(C(N)C(=O)O)c1n2C[C@@](NC(=O)c2ccc(-n3cnnc3)cc2Cl)(c2ccccc2)CC1` (stereo partly drawn) [Example 167, 2-amino-2-((S)-7-(2-chloro-4-(4H-1,2,4-triazol-4-yl)benzamido)-2-methyl-7-phenyl-6,7,8,9-tetrahydropyrido[1,2-a]indol-10-yl)acetic acid]: the IC50 was 15.8 nM.

In turn, `COc1ncn(-c2ccc(C(=O)N[C@]3(c4ccccc4)CCc4c(C(=O)O)c5cc(C)ccc5n4C3)c(Cl)c2)n1` [Example 168] yielded an IC50 of 0.636 nM.

As for `Cc1ccc2c(c1)c(C(=O)O)c1n2C[C@@](NC(=O)c2ccc(-n3cnn(C)c3=O)cc2Cl)(c2ccccc2)CC1` [Example 169, (S)-3-(7-(2-chloro-4-(4H-1,2,4-triazol-4-yl)benzamido)-2-methyl-7-phenyl-6,7,8,9-tetrahydropyrido[1,2-a]indol-10-yl)propanoic acid], the IC50 turned out to be 1.68 nM. This IC50 lies about 2.6-fold higher than the previous one.

`COC(=O)c1c2n(c3ccc(C)cc13)C[C@@](NC(=O)c1ccc(-n3cnnc3)cc1Cl)(c1cccc(F)c1)CC2` [Example 170] returned an IC50 of 4.58 nM.

Turning to `Cc1ccc2c(c1)c(C(=O)O)c1n2C[C@@](NC(=O)c2ccc(-n3cnc(C)n3)cc2Cl)(c2cccc(F)c2)CC1` [Example 171], the IC50 was determined as 0.791 nM.

Compound `Cc1ccc2c(c1)c(-c1cccnc1)c1n2C[C@@](NC(=O)c2ccc(-n3cnnc3)cc2Cl)(c2ccccc2)CC1` [Example 172, 2-chloro-N-[(7S)-2-methyl-7-phenyl-10-pyridin-3-yl-6,7,8,9-tetrahydropyrido[1,2-a]indol-7-yl]-4-(4H-1,2,4-triazol-4-yl)benzamide] registered an IC50 of 4.27 nM.

In turn, `Cc1ccc2c(c1)c(C(=O)C(F)F)c1n2C[C@@](NC(=O)c2ccc(-n3cnnc3)cc2Cl)(c2ccccc2)CC1` [Example 175] registered an IC50 of 1.99 nM. This IC50 is about 2.1-fold lower than that of the compound before.

In turn, `Cc1ccc2c(c1)c(-c1cncnc1)c1n2C[C@@](NC(=O)c2ccc(-n3cnnc3)cc2Cl)(c2ccccc2)CC1` [Example 176] had an IC50 of 6.26 nM.

(Values after patent US10351558B2, “Factor IXa inhibitors” (Merck Sharp & Dohme Corp., priority 2015, dated 2019).)
